Assay results as given in patent publication US11013816B2, “Antibody drug conjugates having derivatives of amatoxin as the drug” (Sorrento Therapeutics, Inc., priority 2016, dated 2021).

B1: Nimo-22: Nimo antibody conjugated with 22 (conjugate, chains of the INN, looked up)
heavy: QVQLQQSGAEVKKPGSSVKVSCKASGYTFTNYYIYWVRQAPGQGLEWIGGINPTSGGSNFNEKFKTRVTITADESSTTAYMELSSLRSEDTAFYFCTRQGLWFDSDGRGFDFWGQGTTVTVSSASTKGPSVFPLAPSSKSTSGGTAALGCLVKDYFPEPVTVSWNSGALTSGVHTFPAVLQSSGLYSLSSVVTVPSSSLGTQTYICNVNHKPSNTKVDKKV[left out - human IgG1 Fc]
light: DIQMTQSPSSLSASVGDRVTITCRSSQNIVHSNGNTYLDWYQQTPGKAPKLLIYKVSNRFSGVPSRFSGSGSGTDFTFTISSLQPEDIATYYCFQYSHVPWTFGQGTKLQITRTVAAPSVFIFPPSDEQLKSGTASVVCLLNNFYPREAKVQWKVDNALQSGNSQESVTEQDSKDSTYSLSSTLTLSKADYEKHKVYACEVTHQGLSSPVTKSFNRGEC
modifications: drug conjugate 22
B2: Nimo-23: Nimo antibody conjugated with 23 (conjugate, chains of the INN, looked up)
heavy: B1 heavy
light: B1 light
modifications: drug conjugate 23

Experiments:
Type in all cases: in vivo, Nu/Nu mice
[1] = Body weight and skin observations in the H292 xenograft study; details: single dose 3 mg/kg i.v., FIG. 10
Experimental: (§1) Female Nu/Nu mice aged 5-7 weeks (Charles River) were used throughout these studies.
(§2) Tumor volume was measured twice weekly throughout the experimental period to determine TGI (tumor growth inhibition %). The body weight of each mouse was measured twice weekly by electric balance. Group average and standard deviation were calculated, and statistical analyses (one-way ANOVA with Dunnett's multiple comparison test; GraphPad Prism 6.0) was carried out. All treatment groups were compared with the PBS group. P<0.05 was considered statistically significant.

H292 xenograft = experiment: H292 human xenograft tumor growth in nude mice; details: single dose 3 mg/kg i.v.
Experimental: (§3) This example provides the results for the efficacy of ADCs conjugated with small molecule 22, 23, 25, or 27 in a model of H292, HCC827, and H1975 Human Xenograft Tumor Growth in Nude Mice. HCC827, H292, H1975 cell lines were obtained from ATCC. The cells were cultured in RPMI 1640 1X (Corning 10-041-CV) medium with 10% FBS (Seradigm 1500-500) and penicillin streptomycin (Corning 30-002-CI) at 37° C. in a 5% carbon dioxide humidified environment. Cells were cultured for a period of 2 weeks and passaged 4 times before harvest. The cells were harvested with 0.25% trypsin (Corning 25-050-CI). Prior to injection, HCC827 cells were mixed in a 1:1 ratio of HBSS (Hank's balanced salt solution; Ward's 470180-784) and matrigel (Corning 354234) mixture, and 7 million cells per 0.2 ml were injected subcutaneously into the upper right flank of each mouse. H292 cells were resuspended in HBSS, and 5 million cells per 0.2 ml were injected subcutaneously into the upper right flank of each mouse. H1975 cells were resuspended in HBSS, and 3 million cells per 0.2 ml were injected subcutaneously into the upper right flank of each mouse. […]
(§4) Upon receipt, mice were housed 5 mice per cage in a room with a controlled environment. […] The animals' health status was monitored during the acclimation period. […]
(§5) Tumor growth was monitored by measurement of tumor width and length using a digital caliper starting day 5-7 after inoculation, and followed twice per week until tumor volume reached ˜100-250 mm^3. Tumor volume was calculated using the formula: Volume (mm^3)=[Length (mm)×Width (mm)^2]/2. […] Tumor growth was monitored, and each group of mice was sacrificed when the average tumor load for the control group exceeded 2000 mm^3.
(§6) Tumor volume was measured twice weekly throughout the experimental period to determine TGI (tumor growth inhibition %). The body weight of each mouse was measured twice weekly by electric balance. Group average and standard deviation were calculated, and statistical analyses (one-way ANOVA with Dunnett's multiple comparison test; GraphPad Prism 6.0) was carried out. […]

HCC827 xenograft = experiment: HCC827 human xenograft tumor growth in nude mice
Experimental: as §3, §4, §5, §6

[2] = Body weight in the HCC827 xenograft studies; details: -23 conjugates, 3 mg/kg, FIG. 13
Experimental: as §1, §2

| Molecule | treatment-related body weight loss [1] | H292 tumor growth inhibition compared to PBS control group (H292 xenograft; FIG. 8) | complete tumor regression (tumor free mice) (H292 xenograft; FIG. 9) | tumor size/Weight compared to PBS Control group (H292 xenograft; FIG. 9) | tumor volume compared to PBS Control group (HCC827 xenograft; single dose 3 mg/kg i.v., FIG. 11) | tumor weight compared to PBS Control group (HCC827 xenograft; single dose 3 mg/kg i.v., FIG. 12) | H292 tumor growth inhibition compared to PBS treated control group (HCC827 xenograft; single dose 3 mg/kg, FIGS. 11 and 12, text prints H292, Table 3 HCC827) | body weight loss [2] |
| --- | --- | --- | --- | --- | --- | --- | --- | --- |
| B1 | no significant | significantly inhibited | 4 out of 7 | significantly reduced | – | – | – | – |
| B2 | – | – | – | – | significantly reduced | significantly reduced | significantly inhibited | no body weight loss |
